Source: patent US20070135383A1, “Phospholipase inhibitors, including multi-valent phospholipase inhibitors, and use thereof, including as lumen-localized phospholipase inhibitors” (priority 2005, published 2007)

Protein sequences, listed by entry. Tags and fused reporters are not part of them. Residues count along the entry.
UniProt P04054, 23-148 limits assumed: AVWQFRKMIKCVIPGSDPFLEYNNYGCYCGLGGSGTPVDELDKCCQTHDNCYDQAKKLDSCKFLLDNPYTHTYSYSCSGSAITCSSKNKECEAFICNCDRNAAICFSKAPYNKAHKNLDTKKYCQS
UniProt Q9Z0Y2, 23-146 limits assumed: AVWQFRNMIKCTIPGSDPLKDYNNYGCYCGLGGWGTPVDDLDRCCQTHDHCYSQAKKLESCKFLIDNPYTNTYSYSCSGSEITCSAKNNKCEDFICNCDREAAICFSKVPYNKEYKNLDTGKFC
UniProt P00592, 23-146 limits assumed: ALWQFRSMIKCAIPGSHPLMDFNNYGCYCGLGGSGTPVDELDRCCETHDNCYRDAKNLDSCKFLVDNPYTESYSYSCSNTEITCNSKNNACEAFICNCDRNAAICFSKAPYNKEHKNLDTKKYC

Legend:
Experiment in all cases: Fluorimetric PPyrPM assay for group 1B PLA2 inhibition (Example 12)
[1] = target: human group 1B PLA2 (hps PLA2) (Homo sapiens, UniProt P04054); conditions: read-out: ILYPSA IC50 hps PLA2; human pancreas secreted PLA2
Text: (§1) In this example, a fluorimetric assay procedure was used to evaluate the indole and indole-related compounds of the invention as inhibitors of group 1B phospholipase A2 (PLA2) from human, mouse and porcine. A description of this assay is found in articles: Leslie, C C and Gelb, M H (2004) Methods in Molecular Biology “Assaying phospholipase A2 activity”, 284:229-242; Singer, A G, et al. (2002) Journal of Biological Chemistry “Interfacial kinetic and binding properties of the complete set of human and mouse groups I, II, V, X, and XII secreted phospholipases A2”, 277:48535-48549, which are incorporated herein as references.
(§2) In general, this assay used a phosphatidylmethanol substrate with a pyrene fluorophore on the terminal end of the sn-2 fatty acyl chain. Without being bound by theory, close proximity of the pyrenes from neighboring phospholipids in a phospholipid vesicle caused the spectral properties to change relative to that of monomeric pyrene. Bovine serum albumin was present in the aqueous phase and captured the pyrene fatty acid when it is liberated from the glycerol backbone owing to the PLA2-catalyzed reaction. […] The effect of a given inhibitor and inhibitor concentration on human, mouse and porcine phospholipase was determined. […]
(§3) The following procedure was performed to evaluate the inhibitory potency of the evaluated compounds. • 14. […]

[2] = target: mouse group 1B PLA2 (mps PLA2) (Mus musculus, UniProt Q9Z0Y2); conditions: read-out: ILYPSA IC50 mps PLA2; mouse pancreas secreted PLA2
Text: as §1, §2, §3

[3] = target: porcine group 1B PLA2 (pps PLA2) (Sus scrofa, UniProt P00592); format: biochemical; conditions: read-out: ILYPSA IC50 pps PLA2; porcine pancreas secreted PLA2
Text: as §1
as §2, with “pyrene.” for “pyrene. Bovine serum albumin was present in the aqueous phase and captured the pyrene fatty acid when it is liberated from the glycerol backbone owing to the PLA2-catalyzed reaction.”
The following procedure was performed to evaluate the inhibitory potency of the evaluated compounds. • 14. […] The fluorescence was read using an excitation of 342 nm and an emission of 395 nm.
Evaluated compounds were tested in duplicate and their values were averaged to plot the inhibition curve and calculate the IC50. […]

Compound: Cc1c(C(=O)C(N)=O)c2c(OCC(=O)O)cc([N+](=O)[O-])cc2n1Cc1ccccc1
- IC50 [1]: 2800 nM
- IC50 [2]: 1080 nM
- IC50 [3]: 70 nM
